# Biological target: 5-hydroxytryptamine receptor 1A (Homo sapiens) (UniProt P08908)
# Chains of the proteins cited; added tags and fusions are not shown.
# UniProt P08908, whole entry: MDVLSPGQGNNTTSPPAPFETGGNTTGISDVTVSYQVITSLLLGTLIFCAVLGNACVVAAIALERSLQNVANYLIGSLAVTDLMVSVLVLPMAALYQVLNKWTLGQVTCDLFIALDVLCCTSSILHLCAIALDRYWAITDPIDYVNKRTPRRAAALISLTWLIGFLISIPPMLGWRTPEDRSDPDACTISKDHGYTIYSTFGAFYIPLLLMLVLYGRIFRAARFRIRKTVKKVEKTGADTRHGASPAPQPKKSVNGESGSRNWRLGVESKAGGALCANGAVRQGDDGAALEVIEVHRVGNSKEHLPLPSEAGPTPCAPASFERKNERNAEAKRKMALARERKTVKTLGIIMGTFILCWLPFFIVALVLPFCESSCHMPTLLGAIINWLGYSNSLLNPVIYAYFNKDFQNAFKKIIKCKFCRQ
# Details: Sus scrofa; Hippocampus
smiles,measurement,value
CNS(=O)(=O)Cc1ccc2[nH]cc(CCN(C)C)c2c1,pKD,5.5

# From ChEMBL document CHEMBL1126726 (J Med Chem, 1993)
